Results taken from ChEMBL document CHEMBL4043163, “Methyl propiolate and 3-butynone: Starting points for synthesis of amphiphilic 1,2,3-triazole peptidomimetics for antimicrobial evaluation” (Bioorg Med Chem, 2017).

Key:
[1] = test system: Escherichia coli; experiment: Antimicrobial activity against Escherichia coli ATCC 25922 assessed as growth inhibition incubated overnight at 37degC by visual and photometry based method; assay type: functional
[2] = test system: Pseudomonas aeruginosa; experiment: Antimicrobial activity against Pseudomonas aeruginosa ATCC 27853 assessed as growth inhibition incubated overnight at 37degC by visual and photometry based method; assay type: functional

GENTAMICIN
MIC [1]: 0.5 µg/mL | MIC [2]: 0.5 µg/mL
